Experimental data published in US9718790B2, “Triazine derivative and pharmaceutical composition having an analgesic activity comprising the same” (SHIONOGI & CO., LTD., priority 2010, dated 2017).

The chains behind the UniProt entries cited, without tags or fusion partners.
UniProt P56373, whole entry: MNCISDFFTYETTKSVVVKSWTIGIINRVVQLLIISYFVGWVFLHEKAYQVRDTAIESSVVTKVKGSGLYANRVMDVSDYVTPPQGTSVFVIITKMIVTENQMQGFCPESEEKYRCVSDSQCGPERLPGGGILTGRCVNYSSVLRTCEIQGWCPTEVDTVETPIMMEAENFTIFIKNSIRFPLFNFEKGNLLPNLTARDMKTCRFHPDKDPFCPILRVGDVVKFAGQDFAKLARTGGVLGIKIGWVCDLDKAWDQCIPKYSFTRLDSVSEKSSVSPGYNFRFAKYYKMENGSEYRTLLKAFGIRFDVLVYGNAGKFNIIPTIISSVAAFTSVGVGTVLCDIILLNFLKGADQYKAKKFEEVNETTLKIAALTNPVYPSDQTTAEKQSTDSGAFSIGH

biological target: human P2X3 receptor (Homo sapiens (Human), UniProt P56373); assay: Evaluation of human P2X3 receptor inhibitory activity (Fluo-3 calcium fluorescence, FDSS 3000, ATP stimulation); assay type: cell-based; conditions: read-out: P2X3 IC50;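 also: stimulus was 50 nM ATP with fluorescence followed for 3 min, and the response per well was peak post-ATP fluorescence divided by the reading at measurement start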

| Structure (SMILES) | IC50 |
| --- | --- |
| CCOC(=O)C1(Cn2c(=O)[nH]c(=Nc3ccc(OC(C)C)c(Cl)c3)n(Cc3ccc(C)cc3)c2=O)CC1 | 10 nM |
| CC(C)Oc1ccc(N=c2[nH]c(=O)n(CCc3nn[nH]n3)c(=O)n2Cc2ccc(Cl)cc2)cc1F | 10 nM |

same assay, conditions: read-out: P2X3 IC50; C6BU-1 cells stably expressing human P2X3 receptor

| Structure (SMILES) | IC50 |
| --- | --- |
| Cc1ccc(Oc2ccc(N=c3[nH]c(=O)n(C[C@H](C)C(=O)O)c(=O)n3Cc3ccc(Cl)cc3)cc2)cn1 | 17 nM |
| CCCc1nc2ccc(N=c3[nH]c(=O)n(C[C@H](C)C(=O)O)c(=O)n3Cc3ccc(Cl)cc3)cc2o1 | 50 nM |

same assay, conditions: read-out: P2X3 IC50; C6BU-1 cells stably expressing human P2X3 receptor, Fluo-3 fluorescence, FDSS 3000

| Structure (SMILES) | IC50 |
| --- | --- |
| COC(=O)[C@@H](C)Cn1c(=O)[nH]/c(=N\c2ccc(OC(C)C)c(Br)c2)n(Cc2ccc(C)cc2)c1=O | 7 nM |
| CCOC(=O)C1(Cn2c(=O)[nH]c(=Nc3ccc(OCC)c(Cl)c3)n(Cc3ccc(C)cc3)c2=O)CC1 | 4 nM |
| O=C(O)CCn1c(=O)[nH]c(=Nc2ccc(OCC3CC3)cc2)n(Cc2ccc(Cl)cc2)c1=O | 65 nM |
| Cc1ccc(Cn2c(=Nc3ccc(OC(C)C)c(Cl)c3)[nH]c(=O)n(CC3(C(=O)O)CC3)c2=O)cc1 | 11 nM |
| COC(=O)[C@H](C)[C@H](C)n1c(=O)[nH]/c(=N\c2ccc(OCC3CC3)cc2)n(Cc2ccc(Cl)cc2)c1=O | 18 nM |
| CCOc1ccc(N=c2[nH]c(=O)n(CC3(C(=O)O)CC3)c(=O)n2Cc2ccc(C)cc2)cc1Cl | 22 nM |
| CCC[C@@H](C)Oc1ccc(/N=c2\[nH]c(=O)n(CCC(=O)O)c(=O)n2Cc2ccc(C)cc2)cc1 | 541 nM |
| CCCOc1ccc(/N=c2\[nH]c(=O)n([C@@H](C)[C@@H](C)C(=O)OC)c(=O)n2Cc2ccc(Cl)cc2)cc1 | 23 nM |

same assay, conditions: read-out: P2X3 IC50; human P2X3 receptor, Test Example 1

| Structure (SMILES) | IC50 |
| --- | --- |
| CCCOc1ccc(N=c2[nH]c(=O)n(CCC(=O)OCC)c(=O)n2Cc2ccc(C)cc2)cc1Cl | 13 nM |
